The list shows a part of the results, in another mix than the full data. Activity calls are given as the source filed them. Rule as the data show it: active = inhibition above about 11%; inactive = the rest.

Chains of the proteins cited; added tags and fusions are not shown.
UniProt Q01970, whole entry, looked up: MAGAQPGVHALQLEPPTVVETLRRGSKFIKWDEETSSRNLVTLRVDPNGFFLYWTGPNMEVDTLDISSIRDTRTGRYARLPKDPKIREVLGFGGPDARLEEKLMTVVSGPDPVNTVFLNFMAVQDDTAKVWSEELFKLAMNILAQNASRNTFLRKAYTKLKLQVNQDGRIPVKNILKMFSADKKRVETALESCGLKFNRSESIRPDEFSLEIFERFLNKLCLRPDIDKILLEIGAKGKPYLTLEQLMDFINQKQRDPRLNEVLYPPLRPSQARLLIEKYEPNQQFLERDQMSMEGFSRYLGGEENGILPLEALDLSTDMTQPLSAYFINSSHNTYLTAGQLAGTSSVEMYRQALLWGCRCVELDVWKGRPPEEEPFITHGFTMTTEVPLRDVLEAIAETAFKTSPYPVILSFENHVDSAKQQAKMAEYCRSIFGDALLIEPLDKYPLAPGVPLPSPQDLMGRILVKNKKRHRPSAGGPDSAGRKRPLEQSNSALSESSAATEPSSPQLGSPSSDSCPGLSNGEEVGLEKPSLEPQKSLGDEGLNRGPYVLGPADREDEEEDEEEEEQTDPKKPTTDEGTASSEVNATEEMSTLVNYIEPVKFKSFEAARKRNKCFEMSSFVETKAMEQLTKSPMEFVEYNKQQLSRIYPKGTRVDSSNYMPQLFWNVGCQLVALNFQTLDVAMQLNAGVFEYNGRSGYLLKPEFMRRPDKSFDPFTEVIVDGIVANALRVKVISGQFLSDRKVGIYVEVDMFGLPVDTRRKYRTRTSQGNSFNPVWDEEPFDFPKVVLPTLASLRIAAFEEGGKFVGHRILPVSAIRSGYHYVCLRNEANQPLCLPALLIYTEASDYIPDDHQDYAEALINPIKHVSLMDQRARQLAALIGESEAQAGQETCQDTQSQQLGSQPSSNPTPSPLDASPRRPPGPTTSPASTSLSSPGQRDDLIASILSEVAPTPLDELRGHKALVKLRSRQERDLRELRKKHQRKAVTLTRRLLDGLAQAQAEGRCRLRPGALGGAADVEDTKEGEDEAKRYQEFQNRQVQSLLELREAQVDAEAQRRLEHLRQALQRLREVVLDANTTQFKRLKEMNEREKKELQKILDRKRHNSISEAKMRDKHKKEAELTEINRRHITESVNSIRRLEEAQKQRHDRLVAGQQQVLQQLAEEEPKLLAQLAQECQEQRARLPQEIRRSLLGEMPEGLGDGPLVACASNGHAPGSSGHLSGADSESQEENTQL

The assay addresses 1-phosphatidylinositol 4,5-bisphosphate phosphodiesterase beta-3 (Homo sapiens) (UniProt Q01970). Nature of the assay: phospholipase C beta3 enzyme inhibition – biochemical, fluorescence, primary screen (AID 720704).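 Also: 0% = median of compound wells on plate and 100% = full blocker control.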 Conditions: Purified PLC-beta3, fluorogenic substrate, at 12.2 µM, active compounds read high.
Take `C[C@@H]1C=CCP(=O)(Oc2ccccc2)O1` (some centres undefined): the inhibition is inactive: 6.56%. Then `C[C@H]1OP(=O)(Oc2ccccc2)C[C@@H]2O[C@@H]21` (some centres undefined), with inactive: 2.14%; and `Cc1ccccc1CN(C)C(=O)COC(=O)C(O)(c1ccccc1)c1ccccc1`, with inactive: -4.34%; and `COC(=O)C1(C)COP(=O)(NCc2ccccc2)OC1` (centres undefined), with inactive: -1.36%. On to `N#C/C(=C\c1ccc(N(CCBr)CCBr)cc1)C(N)=O`, for which the inhibition was inactive: -16.7%. For the molecule `CC(=O)c1ccc(N2CC2c2ccncc2)cc1` (centres undefined), the inhibition was inactive: 3.66%. For the molecule `c1nnnn1CCn1cnnn1`, the inhibition is inactive: 2.85%. Turning to `CC(C)C(=O)NC(Sc1ccccc1)C(Cl)(Cl)Cl` (centres undefined), the inhibition was inactive: -0.05%. `O=P(Nc1nccs1)(c1ccccc1)c1ccccc1`: the inhibition is inactive: 2.53%. On to `C[C@H]1OP(=O)(Oc2ccccc2)[C@H](O)[C@H](O)[C@H]1N=[N+]=[N-]` (some centres undefined), for which the inhibition is inactive: 2.11%.

`O=P(Nc1nc2ccccc2s1)(c1ccccc1)c1ccccc1`: the inhibition was inactive: -8.32%. Consider `O=P(Nc1ccccn1)(c1ccc(Br)cc1)c1ccc(Br)cc1`, for which the inhibition was inactive: -3.04%.

In the case of `CN(C)C1(CNC(=O)c2ccc(Cl)c(S(N)(=O)=O)c2)CCCCC1`, the inhibition was inactive: 7.11%.

For the molecule `Nc1ccc(CCCCOc2ccccc2)cc1`, the inhibition is inactive: -3.2%. As to `COc1ccc(N)c([N+](=O)[O-])c1[N+](=O)[O-]`, the inhibition was inactive: 2.4%.

Take `O=C(OC1CN2CCC1CC2)c1cccc(Cl)c1` (centres undefined): the inhibition is inactive: 7.01%. For the molecule `Nc1ccc([As](=O)(O)c2ccc([N+](=O)[O-])cc2)cc1`, the inhibition was inactive: -6.61%. Consider `C(Cc1nn[nH]n1)Cc1nn[nH]n1`, for which the inhibition is inactive: 1.85%. Consider `C/C(N)=N\P(=O)(OCc1ccccc1)OCc1ccccc1`, for which the inhibition is inactive: 5.51%. With `O=[As](O)(c1ccccc1)c1ccc(O)cc1`, the inhibition is inactive: -1.99%. Take `O=[N+]([O-])c1ncn(CCn2cnc([N+](=O)[O-])n2)n1`: the inhibition was inactive: -6.42%. In the case of `CC(=O)NC(SC(=S)N(C)C)C(Cl)(Cl)Cl` (centres undefined), the inhibition was inactive: -2.24%. With `CN(C)C1(CNC(=O)c2ccc(S(C)(=O)=O)cc2)CCCCC1`, the inhibition was inactive: -4.72%. In the case of `CCCC1OP(=O)(Nc2ccccc2)OCC1CC` (centres undefined), the inhibition is inactive: -3.3%.

Take `O=C(/C=C/c1ccccc1)OC1CN2CCC1CC2` (centres undefined): the inhibition was inactive: -3.15%.

Take `CC1CCC(C(C)C)C(OP(=O)(Nc2ccccn2)c2ccccc2)C1` (centres undefined): the inhibition was inactive: 2.77%. Then `Cc1ccc(C(=O)OC2CN3CCC2CC3)cc1` (centres undefined), with inactive: 3.58%; and `Cc1nn(-c2ccccc2)c2c1P(=O)(N1CCOCC1)N(C)C(c1ccccc1)=N2` (centres undefined), with inactive: 8.55%. Consider `Nc1cccc([As](=O)(O)c2ccccc2)c1`, for which the inhibition was inactive: -2.21%.

Broadly, the inhibition is the relative decrease from the control value, in per cent.

These data come from PubChem BioAssay AID720704 (The Scripps Research Institute Molecular Screening Center, 2013).
